US10918713B2, “Epitopes from allergen proteins and methods and uses for immune response modulation” (LA JOLLA INSTITUTE FOR ALLERGY AND IMMUNOLOGY, priority 2012, dated 2021)

Chains of the proteins cited; added tags and fusions are not shown. Residues count along the entry.
UniProt P01920, 33-261 with the stated changes: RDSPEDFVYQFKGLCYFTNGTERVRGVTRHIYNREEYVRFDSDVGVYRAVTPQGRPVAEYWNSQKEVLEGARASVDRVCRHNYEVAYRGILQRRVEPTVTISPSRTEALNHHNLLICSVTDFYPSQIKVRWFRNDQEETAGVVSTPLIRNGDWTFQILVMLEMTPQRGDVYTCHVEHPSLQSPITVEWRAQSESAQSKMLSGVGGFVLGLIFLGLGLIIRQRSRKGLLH

Molecular target: DQA1*0101/DQB1*0501 (Homo sapiens, UniProt P01909+P01920, A157S/A45G/A70V/C70R/D89V/E106S/E118A/E183D/E77G/F83G/G63E/H151Q/H199R/H252R/H253Q/I129T/I235V/I88M/INS77G/K197Q/L107V/L117V/L119Y/L178F/L71W/L74F/L85Q/L91A/L98M/M46L/N214S/P87R/Q116E/Q256R/Q57E/Q76K/R102G/R240Q/R75S/R78G/S102Y/S185I/S41F/S97I/T103A/T109R/T121G/T122I/T172A/T86R/V148I/V68A/V73E/Y34C/Y58G/Y62H)
Test: biochemical

Compound	IC50
CC[C@H](C)[C@H](NC(=O)[C@H](Cc1ccc(O)cc1)NC(=O)[C@H](C)NC(=O)[C@H](CC(=O)O)NC(=O)[C@H](C)NC(=O)[C@@H](NC(=O)CNC(=O)[C@@H](N)CCC(N)=O)C(C)C)C(=O)N[C@H](C(=O)N[C@@H](CC(C)C)C(=O)N[C@H](C(=O)N[C@H](C(=O)N[C@@H](CC(C)C)C(=O)N1CCC[C@H]1C(=O)N[C@@H](CCCCN)C(=O)O)[C@@H](C)O)C(C)C)[C@@H](C)O [3324.0011]	8.01 µM
CC[C@H](C)[C@H](N)C(=O)N[C@@H](C)C(=O)N[C@@H](CO)C(=O)N[C@@H](CC(C)C)C(=O)N[C@@H](Cc1ccccc1)C(=O)N[C@@H](C)C(=O)N[C@@H](C)C(=O)N[C@@H](C)C(=O)NCC(=O)N[C@@H](CC(C)C)C(=O)N[C@@H](C)C(=O)N[C@@H](C)C(=O)N[C@@H](C)C(=O)N[C@@H](C)C(=O)N1CCC[C@H]1C(=O)O [3324.0015]	24.1 µM
